Where two headings read alike, the source gives them in different places.
Legend:
Mouse = type: in vivo, Male and female mice of the dd Y strain
Protocol: (§1) Male and female mice of the dd Y strain, 4 weeks of age, as well as male and female rats of the Wistar strain, 7 weeks of age, were used in groups of ten. They were preliminarily raised for a week. Then, two compounds to be tested were dissolved or suspended in physiological saline and administered orally or subcutaneously. In the case of oral administration,the highest possible doses of 0.2 ml/10 g for mice and 2 ml/100 g for rats were used which both corresponded to 5,000 mg/kg. In the case of subcutaneous administration, the doses were reduced to 1/2. […] The animals that died during this period of observation were subjected to postmortem examination.

Rat = type: in vivo, male and female rats of the Wistar strain
Protocol: as §1

Solubility = type: physicochemical

Row | Substance | LD50 (Mouse; Mouse, oral, 7 days observation) | LD50 (Mouse; Mouse, subcutaneous, 7 days observation) | LD50 (Rat; Rat, oral, 7 days observation) | LD50 (Rat; Rat, subcutaneous, 7 days observation) | solubility in organic solvents (Solubility; absolute ethanol, benzene, etc.) | solubility in water (Solubility; water) | LD50 (Mouse; mouse, in vivo, po, 168 h) | LD50 (Mouse; mouse, in vivo, sc, 168 h) | LD50 (Rat; rat, in vivo, po, 168 h) | LD50 (Rat; rat, in vivo, sc, 168 h)
1 | inositol hexasulfate sodium aluminum salt | > 5,000 mg/kg | > 2,500 mg/kg | > 5,000 mg/kg | > 2,500 mg/kg | very slightly soluble | partially soluble |  |  |  | 
2 | inositol hexasulfate aluminum salt |  |  |  |  |  |  | > 5,000 mg/kg | > 2,500 mg/kg | > 5,000 mg/kg | > 2,500 mg/kg

Reference: patent publication US4215143A (Mitsui Toatsu Chemicals, Incorporated, priority 1978, dated 1980)
